Experiment [1] deals with rat osteocalcin promoter. In words: OCN (osteocalcin) promoter assay. To be noted: read-out: OCN Promoter EC50.
Experiment [2] concerns the target RXR-VDR heterodimer (Gal4-RXR-DEF and VP16-VDR-LBD) (Homo sapiens, UniProt P11473). In words: RXR-VDR heterodimerization assay (SaOS-2 cells). To be noted: read-out: RXR-VDR (SaOS-2 cells) EC50.
In experiment [3] the target is VDR (pGal4-VDR-LBD) (Homo sapiens, UniProt P11473). Put plainly: VDR CTF (Caco-2 cell co-transfection assay). To be noted: read-out: VDR CTF (Caco-2 cells) EC50.

Sequences of proteins named here, by UniProt entry; tags and fusion partners are left off. Residues count along the entry.
UniProt P11473, 127-423 limits assumed: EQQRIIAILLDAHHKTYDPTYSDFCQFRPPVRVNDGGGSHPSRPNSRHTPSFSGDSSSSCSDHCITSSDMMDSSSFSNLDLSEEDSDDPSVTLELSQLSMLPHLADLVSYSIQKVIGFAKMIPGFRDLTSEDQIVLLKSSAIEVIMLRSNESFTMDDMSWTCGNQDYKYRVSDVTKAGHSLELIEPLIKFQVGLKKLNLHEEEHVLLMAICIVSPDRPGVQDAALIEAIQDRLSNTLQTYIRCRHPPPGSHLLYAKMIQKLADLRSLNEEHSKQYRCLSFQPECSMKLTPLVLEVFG

For orientation: EC50 means the concentration at which the effect is half-maximal. With `CCC(CC)(c1ccc(OCC(O)C(C)(C)C)c(C)c1)c1cc(C)c(S(=O)(=O)NCC(=O)OC)s1` (racemic), the EC50 in experiment [1] is 30.6 nM; in experiment [2] it was 4.05 nM; in experiment [3], 1300 nM.
In the case of `CCC(CC)(c1ccc(OCC(O)C(C)(C)C)c(C)c1)c1cc(C)c(S(=O)(=O)NCCC(=O)O)s1` (racemic), the results for the EC50 in experiment [1] and in experiment [2] were 43.7 nM and 197 nM, respectively.
For `CCC(CC)(c1ccc(OCC(C)(O)C(C)(C)C)c(OC)c1)c1ccc(C(=O)N[C@@H](C)C(=O)O)s1` (stereo partly shown), the EC50 in experiment [2] is 859 nM; in experiment [3] it was 1110 nM.
For “(5-{1-ethyl-1-[4-(3-hydroxy-4,4-dimethyl-pentyl)-3-methyl-phenyl]-propyl}-3-methyl-thiophene-2-sulfonylaminoo)-acetic acid”, the EC50 was determined as 83.6 nM in experiment [1], 403 nM in experiment [2] and 645 nM in experiment [3].
As for `CCC(CC)(c1ccc(OCC(O)C(C)(C)C)c(C)c1)c1cc(C)c(S(=O)(=O)N[C@H](C)C(=O)OC)s1` (single isomer, unassigned), the results for the EC50 in experiment [2] and in experiment [3] were 104 nM and 1130 nM, respectively.
Take `CCC(CC)(c1ccc(OCC(=O)C(C)(C)C)c(C)c1)c1cc(C)c(S(=O)(=O)N(C)CCC(=O)O)s1`: the concentration giving a half-maximal response (EC50) in experiment [2] is 284 nM.
On to `CCC(CC)(c1ccc(OCC(O)C(C)(C)C)c(C)c1)c1cc(C)c(C(=O)NCC(=O)O)s1` (stereo not shown), for which the EC50 in experiment [2] is 10 nM.
In the case of `CCC(CC)(c1ccc(CCC(O)C(C)(C)C)c(C)c1)c1cc(C)c(S(=O)(=O)NCC(=O)O)s1` (racemic), the EC50 was found to be 142 nM in experiment [2] and 279 nM in experiment [3].
As to `CCC(CC)(c1ccc(OCC(=O)C(C)(C)C)c(C)c1)c1ccc(OC[C@H](O)C(C)(C)C)c(C)c1`, the EC50 came to 430 nM in experiment [2] and 891 nM in experiment [3].
On to `CCC(CC)(c1ccc(OCC(O)C(C)(C)C)c(C)c1)c1cc(C)c(C(=O)N[C@@H](CC(=O)O)C(=O)O)s1` (stereo partly shown), for which the EC50 in experiment [2] is 503 nM; in experiment [3], 889 nM.
For `CCC(CC)(c1ccc(CCC(O)C(C)(C)C)c(C)c1)c1cc(C)c(S(=O)(=O)NCC(=O)OC)s1` (stereo not shown), the EC50 in experiment [1] stood at 25.5 nM.
With `CCc1cc(C(CC)(CC)c2ccc(C(=O)O)s2)ccc1OCC(C)(O)C(C)(C)C` (stereo not shown), the EC50 in experiment [2] was 372 nM; in experiment [3], 1030 nM.
Consider `CCC(CC)(c1ccc(OCC(=O)C(C)(C)C)c(C)c1)c1cc(C)c(S(=O)(=O)NC(=O)C(C)C)s1`, for which the EC50 in experiment [2] worked out at 1050 nM.
Consider “(5-{1-ethyl-1-[4-(2-hydroxy-3,3-dimethyl-butoxy)-3-methyl-phenyl]-propyl}-3-methyl-thiophene-2-sulfonylamine)-acetic acid methyl ester”, for which the EC50 in experiment [1] came out at 146 nM; in experiment [2], 431 nM; in experiment [3] it was 901 nM.
For the molecule “(5-{1-Ethyl-1-[4-(2-hydroxy-3,3-dimethyl-butoxy)-3-methyl-phenyl]-propyl}-thiophene-2-sulfonylamine)-acetic acid methyl ester”, the concentration giving a half-maximal response (EC50) stood at 110 nM in experiment [1] and 474 nM in experiment [2].
As to `CCc1cc(C(CC)(CC)c2ccc(S(=O)(=O)NCC(=O)O)s2)ccc1OCC(O)C(C)(C)C` (single isomer, unassigned), the EC50 was found to be 271 nM in experiment [2] and 799 nM in experiment [3].
For `CCCc1cc(C(CC)(CC)c2ccc(C(=O)N[C@@H](C)C(=O)O)s2)ccc1OCC(C)(O)C(C)(C)C` (single isomer, unassigned), in that order: 8.13 nM and 85 nM.
Turning to `CCC(=O)NS(=O)(=O)c1sc(C(CC)(CC)c2ccc(OCC(O)C(C)(C)C)c(C)c2)cc1C` (stereo not shown), the EC50 was found to be 401 nM in experiment [2] and 1340 nM in experiment [3].
On to `CCOC(=O)CCNS(=O)(=O)c1sc(C(CC)(CC)c2ccc(OCC(O)C(C)(C)C)c(C)c2)cc1C` (stereo not shown), for which the EC50 in experiment [2] worked out at 437 nM.
On the same count and under the same terms, for `CCC(O)(CC)COc1ccc(C(CC)(CC)c2cc(C)c(C(=O)NCC(=O)O)s2)cc1C` the value was 822 nM.
As for `CCC(CC)(c1ccc(OCC(=O)C(C)(C)C)c(C)c1)c1cc(C)c(C(=O)NCC(=O)O)s1`, the EC50 came to 187 nM in experiment [2] and 1480 nM in experiment [3].
Consider `CCC(CC)(c1ccc(OCC(=O)C(C)(C)C)c(C)c1)c1cc(C)c(S(N)(=O)=O)s1`, for which the EC50 in experiment [1] was 131 nM.
Turning to `CCCc1cc(C(CC)(CC)c2ccc(S(=O)(=O)NCC(=O)O)s2)ccc1OCC(O)C(C)(C)C` (stereo not shown), the values for the EC50 in experiment [2] and in experiment [3] were 236 nM and 484 nM, respectively.
For `CCCc1cc(C(CC)(CC)c2ccc(C(=O)O)s2)ccc1OCC(C)(O)C(C)(C)C` (stereo not shown), in that order: 189 nM and 320 nM.
As to `CCC(C)[C@H](NC(=O)c1sc(C(CC)(CC)c2ccc(OCC(O)C(C)(C)C)c(C)c2)cc1C)C(=O)OC` (stereo partly shown), the EC50 in experiment [2] was determined as 505 nM.
With `CCC(CC)(c1ccc(OCC(O)C(C)(C)C)c(C)c1)c1cc(C)c(S(=O)(=O)N[C@H](C)C(=O)O)s1` (stereo partly shown), the results for the EC50 in experiment [2] and in experiment [3] were 257 nM and 715 nM, respectively.
Consider `Cc1cc(C2(c3ccc(OCC(=O)C(C)(C)C)c(C)c3)CCCCC2)ccc1OCC(=O)C(C)(C)C`, for which the 50% effective concentration (EC50) in experiment [2] is 2430 nM.
As to `CCC(CC)(c1ccc(CCC(O)C(C)(C)C)c(C)c1)c1cc(C)c(C(=O)NCC(=O)O)s1` (stereo not shown), the EC50 in experiment [2] came to 362 nM.
As to `CCC(CC)(c1ccc(OCC(C)(O)C(C)(C)C)c(C)c1)c1ccc(C(=O)NCC(=O)O)s1` (single isomer, unassigned), the EC50 in experiment [2] came to 83.8 nM; in experiment [3], 899 nM.
`CCC(CC)(c1ccc(OCC(O)C(C)(C)C)c(C)c1)c1ccc(C(=O)O)s1` (stereo not shown): the EC50 in experiment [2] amounted to 469 nM.
As for `CCC(CC)(c1ccc(OCC(C)(O)C(C)(C)C)c(C)c1)c1ccc(C(=O)O)s1` (stereo not shown), the values for the EC50 in experiment [2] and in experiment [3] were 548 nM and 1280 nM, respectively.
For `CCC(CC)(c1ccc(OCC(O)C(C)(C)C)c(C)c1)c1cc(C)c(S(=O)(=O)NC(C)=O)s1` (stereo not shown), the values for the EC50 in experiment [2] and in experiment [3] were 732 nM and 2410 nM, respectively.
For `CCC(CC)(c1ccc(OCC(O)C(C)(C)C)c(C)c1)c1cc(C)c(CN(CC(=O)O)C(C)=O)s1` (racemic), in that order: 337 nM and 1110 nM.
`CCC(=O)NS(=O)(=O)c1sc(C(CC)(CC)c2ccc(OCC(=O)C(C)(C)C)c(C)c2)cc1C`: the EC50 in experiment [2] was 649 nM.
Same read-out and setting: the value for `CCC(CC)(c1ccc(OCC(O)C(C)(C)C)c(C)c1)c1ccc(S(=O)(=O)NCC(=O)O)s1` (single isomer, unassigned) was 376 nM; that for `CCC(CC)(c1ccc(OCC(=S)C(C)(C)C)c(C)c1)c1cc(C)c(S(=O)(=O)N[C@H](C)C(=O)O)s1` was 352 nM.
`CCCc1cc(C(CC)(CC)c2ccc(C(=O)O)s2)ccc1OCC(C)(O)C(C)(C)C` (single isomer, unassigned): the EC50 in experiment [2] came to 485 nM; in experiment [3], 658 nM.
Take `CCC(CC)(c1ccc(OCC(=O)C(C)(C)C)c(C)c1)c1cc(C)c(S(=O)(=O)NC(=O)C2CC2)s1`: in experiment [2], the EC50 came to 1780 nM.
With `CCOC(=O)CSCc1sc(C(CC)(CC)c2ccc(OCC(=O)C(C)(C)C)c(C)c2)cc1C`, the EC50 came out at 134 nM in experiment [2] and 781 nM in experiment [3].
Consider `CCC(CC)(c1ccc(OCC(O)C(C)(C)C)c(C)c1)c1cc(C)c(COCC(=O)O)s1` (stereo not shown), for which the EC50 in experiment [2] was 453 nM.
For “3′-[4-(2-hydroxy-3,3-dimethylbutoxy)-3-ethylphenyl)-3′-[5-carboxy-thiophen-2-yl]pentane”, the results for the EC50 in experiment [1] and in experiment [2] were 29.4 nM and 379 nM, respectively.
On to `CCCc1cc(C(CC)(CC)c2ccc(C(=O)O)s2)ccc1OCC(O)C(C)(C)C` (single isomer, unassigned), for which the EC50 is 51.1 nM in experiment [2] and 599 nM in experiment [3].
For `CCC(CC)(c1ccc(OCC(O)C(C)(C)C)c(C)c1)c1cc(C)c(S(=O)(=O)Nc2ccccc2C(=O)O)s1` (stereo not shown), in that order: 372 nM and 1210 nM.
Taken in the same sequence, the figures for `CCC(CC)(c1ccc(OCC(O)C(C)(C)C)c(C)c1)c1cc(C)c(S(=O)(=O)NC(C)(C)C(=O)OC)s1` (stereo not shown) were 848 nM and 1150 nM.
Taken in the same sequence, the figures for `CCc1cc(C(CC)(CC)c2ccc(S(=O)(=O)NCC(=O)OC)s2)ccc1OCC(O)C(C)(C)C` (single isomer, unassigned) were 171 nM and 470 nM.
`CCC(C)[C@H](NC(=O)c1sc(C(CC)(CC)c2ccc(OCC(O)C(C)(C)C)c(C)c2)cc1C)C(=O)O` (stereo partly shown): the EC50 in experiment [2] worked out at 559 nM.
On to `CCC(CC)(c1ccc(OCC(O)C(C)(C)C)c(C)c1)c1cc(C)c(C(=O)NCC(=O)OC)s1` (stereo not shown), for which the values for the EC50 in experiment [2] and in experiment [3] were 2.5 nM and 856 nM, respectively.
Take `CCC(CC)(c1ccc(OCC(O)C(C)(C)C)c(C)c1)c1cc(C)c(-c2n[nH]c(=S)o2)s1` (stereo not shown): the EC50 in experiment [2] worked out at 418 nM; in experiment [3], 782 nM.
`CCC(CC)(c1ccc(OCC(=O)C(C)(C)C)c(C)c1)c1cc(C)c(C(=O)N(C)CC(=O)O)s1`: the EC50 in experiment [2] worked out at 385 nM.
For the molecule “3′-[4-(2-hydroxy-2,3,3-trimethylbutoxy)-3-n-propylphenyl]-3′-[5-carboxy-thiophen-2-yl]pentane”, the concentration giving a half-maximal response (EC50) in experiment [1] was 118 nM; in experiment [2], 542 nM.
Turning to `CCC(CC)(c1ccc(OCC(=O)C(C)(C)C)c(C)c1)c1cc(C)c(C(=O)N(C)OC)s1`, the EC50 in experiment [2] came out at 23.8 nM; in experiment [3], 1670 nM.
For `CCC(CC)(c1ccc(CCC(O)C(C)(C)C)c(C)c1)c1cc(C)c(C(=O)OC)s1` (stereo not shown), in that order: 58.9 nM and 1100 nM.
Consider `CCC(CC)(c1ccc(OCC(O)C(C)(C)C)c(C)c1)c1cc(C)c(CO)s1` (racemic), for which the 50% effective concentration (EC50) in experiment [1] worked out at 144 nM.
Consider `CCC(CC)(c1ccc(OCC(=O)C(C)(C)C)c(C)c1)c1cc(C)c(S(=O)(=O)NC(=O)COC)s1`, for which, in experiment [2], the EC50 is 1070 nM.
`CCC(CC)(c1ccc(OCC(O)C(C)(C)C)c(C)c1)c1cc(C)c(C(=O)N(C)OC)s1` (stereo not shown): the EC50 in experiment [2] was determined as 10.7 nM; in experiment [3], 1150 nM.
`CCC(CC)(c1ccc(CCC(O)C(C)(C)C)c(C)c1)c1cc(C)c(C(=O)O)s1` (stereo not shown): in experiment [2], the EC50 was found to be 688 nM.

The record behind these values is patent US20060135484A1, “Vesicant treatment with phenyl-thiophene type vitamin d receptor modulators” (published 2006).
